From paper PMC8434007 (Molecules, 2021) come the findings set out here.

The target of this experiment is T1, bovine thrombin (Bos taurus, UniProt P00735).
T1 construct: purchased Sigma-Aldrich (Milan, Italy)
Put plainly: biochemical.

Regarding `N=C(N)N1CCC(C(=O)Nc2cccc(OCc3cc(-c4ccc(Cl)s4)on3)c2)CC1` [Compound 31], the affinity, expressed as Ki, was 15 µM.
